In patent US7060673B2, “Fusion peptide of human parathyroid hormone derived peptide and tat peptide, preparation thereof, and skin slimming cosmetic composition comprising the same” (LG Household and Health Care Ltd., priority 2001, dated 2006):
Where two headings read alike, the source gives them in different places.

Tests used:
Guinea pigs = conditions: O/W emulsion, closed patch 48 hours
[1] = nude mouse back skin 1.7 cm^2, 24 hours, Franz cell, HPLC and LC mass
Blab/c mice = conditions: 0.5% and 1.0% solutions in ethanol, 50 μl on both ears for 3 days; [3H]-methylthymidine, dpm

Q: What does the source list for KKKKKKKKKGKH?
A: cytotoxicity (MTT) (V79-4 cells; concentration of 0.01 or less): little toxicity; cytotoxicity (MTT) (V79-4 cells; concentration of 0.1 (%, w.v) or more): very weak toxicity; Irritation Degree (Guinea pigs; concentration 0.01 %): Minute irritation; Irritation Index (PII) (Guinea pigs; concentration 0.01 %): 0.62; Irritation Degree (Guinea pigs; concentration 0.1 %): Minute irritation; Irritation Index (PII) (Guinea pigs; concentration 0.1 %): 0.65; Irritation Degree (Guinea pigs; concentration 0.5 %): Minute irritation; Irritation Index (PII) (Guinea pigs; concentration 0.5 %): 0.71; transdermal absorption [1]: superior transdermal absorption; possibility of allergy induction (Blab/c mice): lower possibility of allergy induction compared to a control
